Results: PubChem BioAssay AID376 (PDSP, 2006)
Only a part is listed here, and it is no random draw. Active and inactive are the calls of the source. Rule as the data show it: active = hERG blockade below about -20% or above about 20%; inactive = in between.

The chains behind the UniProt entries cited, without tags or fusion partners. Where a name states a change or a piece, a line headed by the entry shows the natural chain unless it says otherwise.
UniProt Q12809: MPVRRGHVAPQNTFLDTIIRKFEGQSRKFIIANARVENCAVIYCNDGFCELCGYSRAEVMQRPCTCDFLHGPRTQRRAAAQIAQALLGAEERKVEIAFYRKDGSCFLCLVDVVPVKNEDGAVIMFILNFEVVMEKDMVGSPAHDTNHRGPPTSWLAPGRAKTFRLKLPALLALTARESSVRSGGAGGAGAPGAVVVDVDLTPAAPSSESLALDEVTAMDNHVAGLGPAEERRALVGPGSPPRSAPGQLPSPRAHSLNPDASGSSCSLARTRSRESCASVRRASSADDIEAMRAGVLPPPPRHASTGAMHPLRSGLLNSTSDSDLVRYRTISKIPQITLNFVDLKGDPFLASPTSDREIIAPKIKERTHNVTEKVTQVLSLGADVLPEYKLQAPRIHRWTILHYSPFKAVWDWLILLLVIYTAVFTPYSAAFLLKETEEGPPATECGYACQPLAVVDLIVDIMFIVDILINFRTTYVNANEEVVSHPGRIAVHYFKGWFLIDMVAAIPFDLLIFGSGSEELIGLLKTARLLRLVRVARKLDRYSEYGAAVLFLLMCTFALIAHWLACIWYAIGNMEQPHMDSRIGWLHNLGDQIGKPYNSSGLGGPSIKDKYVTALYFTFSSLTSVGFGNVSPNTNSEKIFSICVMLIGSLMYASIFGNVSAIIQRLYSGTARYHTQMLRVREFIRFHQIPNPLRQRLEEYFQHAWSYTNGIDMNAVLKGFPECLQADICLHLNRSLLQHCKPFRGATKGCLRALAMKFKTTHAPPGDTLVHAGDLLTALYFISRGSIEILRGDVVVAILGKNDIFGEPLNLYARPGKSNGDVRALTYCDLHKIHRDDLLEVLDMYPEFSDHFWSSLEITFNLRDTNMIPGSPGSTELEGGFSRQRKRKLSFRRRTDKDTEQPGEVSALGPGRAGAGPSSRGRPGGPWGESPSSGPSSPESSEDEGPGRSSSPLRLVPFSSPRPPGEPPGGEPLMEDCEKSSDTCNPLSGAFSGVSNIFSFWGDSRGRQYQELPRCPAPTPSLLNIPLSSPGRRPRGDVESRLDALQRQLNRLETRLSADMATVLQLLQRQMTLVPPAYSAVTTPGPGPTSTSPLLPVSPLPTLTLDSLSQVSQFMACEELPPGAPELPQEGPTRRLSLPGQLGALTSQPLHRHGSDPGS

biological target: Voltage-gated inwardly rectifying potassium channel KCNH2 (Homo sapiens) (UniProt Q12809); experiment: KCNH2 potassium channel function modulators, cell-based (AID 376); settings: hERG-expressing cells, channel activity single-concentration screen; concentration not given here;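 also: 0% = buffer alone and 100% = reference blocker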

| SMILES | hERG blockade |
| --- | --- |
| O=[N+]([O-])c1ccc(C[As](=O)(O)O)cc1 | active: -27.7% |
| CN1CCCC(OC(=O)C(c2ccccc2)c2ccccc2)C1 (stereo not given) | inactive: 0.0731% |
| [N-]=[N+]=NCC(O)CN=[N+]=[N-] (stereo not given) | inactive: -2.72% |
| C(Cc1nn[nH]n1)c1nn[nH]n1 | inactive: -2.08% |
| O=C(O)C(O)c1ccc([As](=O)(O)O)cc1 (stereo not given) | inactive: -7.66% |
| O=C(CO)Nc1ccc([As](=O)(O)O)cc1 | inactive: -16.7% |
| [N-]=[N+]=Nc1ccc([As](=O)(O)O)cc1 | inactive: 0.946% |
| O=C(CC(=O)c1ccccc1)OC1CN2CCC1CC2 (stereo not given) | active: -20% |
| NS(=O)(=O)Cc1ccc([As](=O)(O)O)cc1 | inactive: -9% |
| O=[As](O)(O)c1ccc([As](=O)(O)O)cc1 | inactive: -2.8% |
| CC(O)COc1ccc([As](=O)(O)O)cc1N (stereo not given) | inactive: -10.4% |
| NCCC(N)CSP(=O)(O)O (stereo not given) | inactive: 16.6% |
| [N-]=[N+]=NCC(N)=O | inactive: 3.64% |
| O=[As]c1ccc(S(=O)(=O)NCCO)cc1 (stereo not given) | inactive: -19.7% |
| NC(=O)Nc1cc([As](=O)(O)O)cc(I)c1O | inactive: 11.5% |
